PubChem BioAssay AID588621 (Sanford-Burnham Center for Chemical Genomics, 2011)
The list shows a part of the results, in another mix than the full data. The source made the active and inactive calls.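 How the source made its calls: active means inhibition at 20 µM, scaled per plate between control wells, above about 37% (limit read from the data); inactive means the rest.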

Chains of the proteins cited; added tags and fusions are not shown.
UniProt P54829, whole entry: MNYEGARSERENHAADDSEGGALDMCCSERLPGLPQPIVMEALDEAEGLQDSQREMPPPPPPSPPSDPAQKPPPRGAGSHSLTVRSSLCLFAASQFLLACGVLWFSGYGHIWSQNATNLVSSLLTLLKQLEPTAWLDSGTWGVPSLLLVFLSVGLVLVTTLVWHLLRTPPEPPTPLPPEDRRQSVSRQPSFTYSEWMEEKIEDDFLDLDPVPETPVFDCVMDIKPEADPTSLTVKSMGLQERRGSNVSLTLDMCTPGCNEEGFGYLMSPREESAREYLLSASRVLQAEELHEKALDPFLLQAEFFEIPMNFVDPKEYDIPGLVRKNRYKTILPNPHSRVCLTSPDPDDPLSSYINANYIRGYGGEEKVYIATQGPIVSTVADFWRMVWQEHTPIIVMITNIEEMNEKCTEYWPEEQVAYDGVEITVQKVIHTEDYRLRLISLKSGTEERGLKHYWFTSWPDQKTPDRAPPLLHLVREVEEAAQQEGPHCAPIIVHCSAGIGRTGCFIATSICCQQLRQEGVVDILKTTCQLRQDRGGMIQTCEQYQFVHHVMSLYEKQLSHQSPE

target: Tyrosine-protein phosphatase non-receptor type 5 (Homo sapiens) (UniProt P54829); assay: inhibition of human PTPN5 enzyme activity – biochemical, fluorescence intensity, uHTS, primary screen (AID 588621); settings: recombinant STEP, OMFP fluorogenic substrate, at 20 µM, active compounds read high;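 further: 0% = DMSO with enzyme and substrate and 100% = substrate only without enzyme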
Outline: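 material = STEP tyrosine phosphatase | reagent = fluorogenic phosphatase substrate OMFP at 25 µM final | doses = single compound dose of 20 µM, 1% DMSO final | schedule = 20 min reaction, room temperature, in the dark | measured by = fluorescence, 480/540 nm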

Row | SMILES | inhibition
1 | CCC(=O)N(c1ccccc1)C1(COC)CCN(CCc2cccs2)CC1 | inactive: 1.6%
2 | CCC(=O)N(c1ccccc1)C1(COC)CCN(CCn2nnn(CC)c2=O)CC1 | inactive: -1.5%
